Laboratory results taken from patent US12637467B2, “Inhibitor of BTK and mutants thereof” (Newave Pharmaceutical Inc., priority 2019, dated 2026).

The chains behind the UniProt entries cited, without tags or fusion partners.
UniProt Q06187, whole entry: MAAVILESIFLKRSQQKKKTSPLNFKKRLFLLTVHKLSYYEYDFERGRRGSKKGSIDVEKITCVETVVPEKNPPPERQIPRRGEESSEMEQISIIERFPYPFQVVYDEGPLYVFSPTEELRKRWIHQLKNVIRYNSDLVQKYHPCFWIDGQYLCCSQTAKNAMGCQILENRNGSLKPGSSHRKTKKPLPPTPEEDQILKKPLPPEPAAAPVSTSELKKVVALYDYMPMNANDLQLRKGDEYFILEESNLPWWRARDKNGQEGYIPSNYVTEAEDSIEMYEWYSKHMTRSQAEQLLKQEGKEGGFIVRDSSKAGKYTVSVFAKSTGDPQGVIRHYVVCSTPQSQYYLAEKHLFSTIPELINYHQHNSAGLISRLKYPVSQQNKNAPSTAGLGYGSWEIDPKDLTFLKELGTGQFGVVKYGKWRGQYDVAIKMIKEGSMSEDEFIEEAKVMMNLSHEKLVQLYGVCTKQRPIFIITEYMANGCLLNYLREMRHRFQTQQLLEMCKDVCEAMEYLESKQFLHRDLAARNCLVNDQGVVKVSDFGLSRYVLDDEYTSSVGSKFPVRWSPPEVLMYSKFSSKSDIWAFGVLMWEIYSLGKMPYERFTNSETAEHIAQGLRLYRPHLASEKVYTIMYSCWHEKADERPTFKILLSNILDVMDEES

Target: WT BTK (Homo sapiens, UniProt Q06187)
Assay: In vitro dialysis assay (irreversibility assay), WT BTK
Type: biochemical
Details: for Recovery after 24 h dialysis: 0.003 mM compound pre-incubated with 2 nM BTK for 2 hr, dialyzed 24 hr against buffer with 40 mM ATP, BTK activity vs non-dialyzed samples; for Conclusion (WT BTK): reversible or irreversible inhibition after 24 hr dialysis

SMILES | Recovery after 24 h dialysis | Conclusion (WT BTK) | Recovery after 24 h dialysis (tested form: HCl) | Conclusion (WT BTK) (tested form: HCl)
C=CC(=O)Nc1cc(Nc2nc(-c3ccnc(N4CCn5c(cc6c5CC(C)(C)C6)C4=O)c3CO)cn(C)c2=O)ccc1N1CCN(C2C[C@@H](C)O[C@@H](C)C2)C[C@@H]1C (stereo partly shown) | ~1% | Irreversible/covalent inhibition |  | 
C=CC(=O)Nc1cc(Nc2nc(-c3ccnc(N4CCn5c(cc6c5CC(C)(C)C6)C4=O)c3CO)cn(C)c2=O)ccc1N1CCN(C2CCO[C@H](C)C2)C[C@@H]1C (stereo partly shown) |  |  | ~1% | Irreversible/covalent inhibition
